Assay results taken from patent US20240116898A1, “NOVEL GLUTAMINYL CYCLASE INHIBITORS AND THE USE THEREOF IN TREATMENT OF VARIOUS DISEASES” (LTD "VALENTA-INTELLEKT", priority 2017, published 2024).

Test system: formalin-induced acute rhinosinusitis in rats
Conditions: 0.6 mg/kg daily, day 8

C[C@@H]1C[C@H]2[C@@H]3CCC4=CC(=O)C=C[C@]4(C)[C@@]3(F)[C@@H](O)C[C@]2(C)[C@@]1(O)C(=O)CO [Dexamethasone] was tested, and the “Eosinophils in 1 μl of the nasal lavage” value was 0 ± 0 in 1 μl, the “Leukocytes in 1 μl of the nasal lavage” value was 1735 ± 451*& in 1 μl and the “Lymphocytes in 1 μl of the nasal lavage” value was 0 ± 0 in 1 μl. For the same compound, the “Macrophages in 1 μl of the nasal lavage” value was 68 ± 23& in 1 μl and the “Neutrophils in 1 μl of the nasal lavage” value was 1664 ± 433*& in 1 μl.
